In this test the target is Delta-type opioid receptor (Mus musculus, UniProt P32300). As to the kind of experiment: Inhibition of delta-selective antagonist binding to opioid receptor of mouse vas dferens. In a few lines: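 Mouse vas deferens at 500 mg tension in Mg-free Krebs, 37 °C, 95% O2/5% CO2. Field-stimulated with 2-ms supramaximal pulses; isometric contractions recorded. Cumulative concentration-response. At least 2 assays in duplicate.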

By UniProt entry, the sequences of proteins in these tests, tags left out.
UniProt P32300, whole entry: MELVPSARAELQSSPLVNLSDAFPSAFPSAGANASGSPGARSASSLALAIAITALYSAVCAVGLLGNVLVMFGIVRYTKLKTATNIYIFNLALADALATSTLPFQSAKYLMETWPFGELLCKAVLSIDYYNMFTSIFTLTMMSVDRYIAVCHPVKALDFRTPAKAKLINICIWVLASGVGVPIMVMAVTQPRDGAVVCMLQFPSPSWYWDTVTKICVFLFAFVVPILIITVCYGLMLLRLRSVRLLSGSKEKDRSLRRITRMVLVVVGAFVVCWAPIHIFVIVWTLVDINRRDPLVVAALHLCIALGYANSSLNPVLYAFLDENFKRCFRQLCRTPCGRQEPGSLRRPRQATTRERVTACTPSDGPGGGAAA

Data on one compound can be found in ChEMBL document CHEMBL1126621 (J Med Chem, 1993).

`CC[C@H](C)[C@H](NC(=O)[C@H](CCCNC(=N)N)NC(=O)[C@H](CCCNC(=N)N)NC(=O)[C@H](CC(C)C)NC(=O)[C@H](Cc1ccccc1)NC(=O)CNC(=O)CNC(=O)[C@@H](N)Cc1ccc(O)cc1)C(=O)N[C@@H](CCCNC(=N)N)C(=O)N1CCC[C@H]1C(=O)N[C@@H](CCCCN)C(=O)N[C@@H](CC(C)C)C(=O)N[C@@H](CCCCN)C(=O)N[C@@H](Cc1c[nH]c2ccccc12)C(=O)N[C@@H](CC(=O)O)C(=O)N[C@@H](CC(N)=O)C(=O)N[C@@H](CCC(N)=O)C(=O)O` [DYNORPHIN A (1-17)]: the IC50 (commonly the point on the concentration scale where inhibition reaches its midpoint) came to 39.7 nM.
